Consider 36 compounds from PubChem BioAssay AID602179 (National Center for Advancing Translational Sciences (NCATS), 2012).

The chains behind the UniProt entries cited, without tags or fusion partners.
UniProt O75874, whole entry R132H: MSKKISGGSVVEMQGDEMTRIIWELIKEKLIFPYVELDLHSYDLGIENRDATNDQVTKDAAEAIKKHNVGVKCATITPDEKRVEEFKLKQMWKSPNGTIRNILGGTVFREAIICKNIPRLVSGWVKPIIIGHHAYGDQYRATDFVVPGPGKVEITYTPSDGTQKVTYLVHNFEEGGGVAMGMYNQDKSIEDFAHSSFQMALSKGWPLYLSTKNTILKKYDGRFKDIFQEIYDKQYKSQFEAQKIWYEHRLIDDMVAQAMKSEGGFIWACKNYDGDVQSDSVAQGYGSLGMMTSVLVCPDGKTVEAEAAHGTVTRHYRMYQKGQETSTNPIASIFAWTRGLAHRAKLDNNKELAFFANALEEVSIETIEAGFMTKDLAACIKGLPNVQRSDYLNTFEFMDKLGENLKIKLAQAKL

Structures are written as SMILES. “And” between values parts separate entries of the source, which are not always exact repeats. Equal values may be shown once. The list shows a part of the results, in another mix than the full data. Some results for these compounds are left out of this collection, so the calls shown say nothing about other tests. The source made the active and inactive calls. Calls come from the whole dose curve; as a rule, active = well fitted inhibition curve with a large enough effect; inconclusive = small, poorly fitted or top-dose-only effect; inactive = no such curve, though single readings can be large or run the other way.

This experiment addresses Isocitrate dehydrogenase [NADP] cytoplasmic (Homo sapiens) (UniProt O75874). The experiment in a line: qHTS for Inhibitors of mutant isocitrate dehydrogenase 1 (IDH1): qHTS. Note: nearly all actives have a fitted effect of over 65% in size. The conditions noted are these: IDH1-R132H enzyme, NADPH consumption, diaphorase/resazurin fluorescence; at 76.6 µM (top of the series). An excerpt:
Unbiased genomic sequencing for 22 glioma genomes found recurrent mutation of isocitrate dehydrogenase 1 (IDH1) on chromosome 2q33-a gene encoding the cytosolic isoform of IIDH1associated with the tricarboxylic acid cycle (TCA) that catalyzes the oxidative decarboxylation of isocitrate, yielding alpha-ketoglutarate and CO2 via NADP+ to NADPH conversion. Subsequent studies confirmed the recurrent IDH mutations in up to 70% of secondary gliomas and in 10% of AML cases. […] This in effect defines IDH1 as an oncogene, and provides an extraordinary opportunity to discover chemical probes against mutant IDH1 that may translate into much needed new therapies for glioma and AML patients. […] NIH Chemical Genomics Center [NCGC] NIH Molecular Libraries Probe Centers Network [MLPCN] MLPCN Grant: DA032129 Assay Submitter (PI): Lenny Dang, Agios Pharmaceuticals
IDH1-R132H (0.5 ug/mL) was dispensed into black, solid-bottom 1536-well plates at 3 uL/well in 20 mM Tris-HCl (pH 7.5), 150 mM NaCl, 10 mM MgCl2, 4 mM beta-ME, and 0.05% protease-free BSA. Then, 23 nL of compounds or DMSO were delivered to each well using a pin tool. A pre-read was run on the Viewlux to identify fluorescent compounds (540 nm excitation filter, 598 nm emission filter, bodipy mirror and 2 second exposure). After 30 minutes of incubation with compound, 3 uL of substrate mix were dispensed (0.016 mM NADPH, 2 mM alpha-KG, 20 mM Tris-HCl (pH 7.5), 150 mM NaCl, 10 mM MgCl2, and 0.05% protease-free BSA). Plates were spun for 1 min at 1000xg and incubated at room temperature for 80 min. Then 1.5 uL of each detection reagent component for the coupling system were added (0.12 mg/mL diaphorase and 0.072 mM resazurin, each in 20 mM Tris-HCl (pH 7.5), 150 mM NaCl, 10 mM MgCl2, and 0.05% protease-free BSA ) The protein, substrate and two detection components were maintained at 4 °C throughout the screen. Additionally, the substrate and resazurin reagents were protected from light. The plates were measured on an Envision plate reader for fluorescence signal using a 540 nm excitation filter and 590 nm emission filter with 10 flashes. 1x and 0x (no-enzyme) IDH1-R132H enzyme control were used to normalize %Activity of identified inhibitors; 0x enzyme values corresponded to 100% Activity (full inhibition), while 1x IDH1-R132H enzyme values were used to normalize 0%Activity (no inhibition). Concentration-response curves were fitted to the signals arising from the resulting fluorescence. The concentration-effect curves were then classified based on curve quality (r2), response magnitude and degree of measured activity, and compounds were subsequently categorized based on their curve class. […] Keywords: isocitrate dehydrogenase, IDH1, IDH1-R132H, MLSMR, MLPCN, NIH Roadmap, qHTS, NCGC
As to `CN(C)C1(CNC(=O)c2ccc(Br)cc2)CCCCC1`, the activity change, negative = inhibition was inactive: 2.83%.
With `COc1cc(C(=O)NCC2(N(C)C)CCCCC2)c([N+](=O)[O-])cc1OC` the figure was inactive: -7.09%.
For `COc1ccc(C(=O)NCC2(N(C)C)CCCCC2)cc1Cl` the value was inactive: -7.53%; for `COc1ccc(Cl)cc1C(=O)NCC1(N(C)C)CCCCC1`, inactive: 2.36%.
`COc1cccc(C(=O)NCC2(N3CCCCC3)CCCCC2)c1`: the activity change, negative = inhibition was inactive: 17.9%.
With `O=C(NCC1(N2CCCCC2)CCCCC1)c1cccc(Cl)c1` the figure was inactive: -5.4%.
With `O=C(OC1CN2CCC1CC2)C(CO)(c1ccccc1)c1ccccc1` (stereo unspecified) the figure was inactive: -0.976%; with `COc1cccc(C(=O)NCC2(N3CCOCC3)CCCCC2)c1`, inactive: -3.56%.
`CC(C)COc1ccc(C(=O)NCC2(N(C)C)CCCCC2)cc1`: the activity change, negative = inhibition was inactive: 4.25%.
With `COc1ccc(Br)c(C(=O)NCC2(N3CCCCC3)CCCCC2)c1`, the activity change, negative = inhibition is inactive: -10.5%.
With `COc1cc(C(=O)NCC2(N(C)C)CCCCC2)cc(OC)c1OC` the figure was inactive: 14.8%.
For `Cc1cccc(C(=O)NCC2(N(C)C)CCCCC2)c1`, the activity change, negative = inhibition is inactive: 4.49%.
With `C=C(C)C#CC(O)(C(=O)OC1CCN(C)CC1)c1ccccc1` (stereo unspecified) the figure was inactive: 10.2%; with `CN(C)c1cccc(C(=O)NCC2(N(C)C)CCCCC2)c1`, inactive: 6.71%; with `O=C(OCCN1CCCC1)C(O)(c1ccccc1)c1ccccc1`, inactive: 0.178%.
Regarding `CC(C)Oc1ccc(C(=O)NCC2(N(C)C)CCCCC2)cc1`, the activity change, negative = inhibition was inactive: 1.76% and inactive: 1.8%.
On to `O=C(NCC1(N2CCCCC2)CCCCC1)c1cc([N+](=O)[O-])ccc1Cl`, for which the activity change, negative = inhibition is inactive: -2.9%.
With `CN1[C@@H]2CC[C@H]1CC(OC(=O)C(O)(c1ccccc1)c1ccccc1)C2` (stereo partly specified) the figure was inactive: 0.118%; with `CC(C)N1C(=O)CC2(CCN(CCOC(=O)C(O)(c3ccccc3)c3ccccc3)CC2)C1=O`, inactive: 0.51%.
With `COc1cc(SC)ccc1C(=O)NCC1(N(C)C)CCCCC1` the figure was inactive: -7.44%.
With `CN(C)C1(CNC(=O)c2cccc(Cl)c2)CCCCC1` the figure was inactive: -7.72%; with `CCN(CC)CC(C)C(C)OC(=O)C(O)(c1ccccc1)c1ccccc1` (stereo unspecified), inactive: -2.94%; with `CN(C)C1(CNC(=O)c2ccccc2F)CCCCC1`, inactive: 2.19%.
With `Cc1ccc(C(=O)NCC2(N3CCCCC3)CCCCC2)cc1`, the activity change, negative = inhibition was inactive: -2.75%.
For `CN(C)C1CCCC1OC(=O)C(O)(c1ccccc1)c1ccccc1` (stereo unspecified) the value was inactive: 4.55%; for `CN(C)c1ccc(C(=O)NCC2(N(C)C)CCCCC2)cc1`, inactive: -2.79%; for `CN(C)C1(CNC(=O)c2ccccc2[N+](=O)[O-])CCCCC1`, inactive: -17.2%.
Consider `Cc1ccccc1C(=O)NCC1(N2CCCCC2)CCCCC1`, for which the activity change, negative = inhibition is inactive: -1.89%.
With `CCCCOc1ccccc1C(=O)NCC1(N(C)C)CCCCC1` the figure was inactive: 6.85%; with `O=C(NCC1(N2CCCCC2)CCCCC1)c1cc(F)c(F)cc1Cl`, inactive: -0.14%.
With `C=CCN1CCN(CCOC(=O)C(O)(c2ccccc2)c2ccccc2)CC1` the figure was inactive: 15.8%; with `O=C(NCC1(N2CCCCC2)CCCCC1)c1cccc(Br)c1`, inactive: -24.1%; with `Cc1cc(C(=O)NCC2(N3CCCCC3)CCCCC2)ccc1[N+](=O)[O-]`, inactive: -7.24%.
For `CCN1CCCC(OC(=O)C2(O)c3ccccc3C=Cc3ccccc32)C1` (stereo unspecified) the value was inactive: 2.8%; for `CCOc1cccc(C(=O)NCC2(N(C)C)CCCCC2)c1`, inactive: -7.24%; for `COc1ccc(C(=O)NCC2(N(C)C)CCCCC2)cc1`, inactive: 0.731%.
